Experimental data: publication PMC9282716 (Cell reports, 2022)

By UniProt entry, the sequences of proteins in these tests, tags left out. Where a name states a change or a piece, a line headed by the entry shows the natural chain unless it says otherwise.
UniProt P43116: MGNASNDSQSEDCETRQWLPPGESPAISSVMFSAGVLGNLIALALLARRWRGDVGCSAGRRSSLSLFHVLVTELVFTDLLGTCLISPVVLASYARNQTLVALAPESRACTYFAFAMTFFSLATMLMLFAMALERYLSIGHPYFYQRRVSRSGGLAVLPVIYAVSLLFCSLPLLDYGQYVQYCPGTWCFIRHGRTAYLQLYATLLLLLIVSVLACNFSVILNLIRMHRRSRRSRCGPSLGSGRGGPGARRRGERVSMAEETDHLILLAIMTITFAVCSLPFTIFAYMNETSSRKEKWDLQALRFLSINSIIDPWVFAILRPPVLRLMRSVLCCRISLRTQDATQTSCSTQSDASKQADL

What was measured:
EP2 receptor [1] = target: T1, EP2 receptor (Homo sapiens, UniProt P43116); assay: cell-based
EP2 receptor [2] = target: T1, EP2 receptor; assay: Cell-based TR-FRET cAMP assay in BE

## CCCCC[C@H](O)/C=C/[C@H]1[C@H](O)CC(=O)[C@@H]1C/C=C\CCCC(=O)O [PGE2, Prostaglandin E2]
EP2 receptor [1]; PGE2 EC50 for cAMP
  EC50: 21 nM
EP2 receptor [1]; agonist EC50 for cAMP induction
  EC50: 40 nM
EP2 receptor [2]
  EC50: 40 nM
